Test: Solubility of lab-made phthalocyanines in organic solvents
Format: physicochemical

| solubility (THF) | solubility (acetone) | solubility (methanol) | solubility (n-hexane) | solubility (toluene) | Substance |
| --- | --- | --- | --- | --- | --- |
| Δ (hardly soluble (<1 wt. %)) | Δ (hardly soluble (<1 wt. %)) | Δ (hardly soluble (<1 wt. %)) | Δ (hardly soluble (<1 wt. %)) | Δ (hardly soluble (<1 wt. %)) | Central Metal-free tetra-t-butyl-phthalocyanine [Example H2Pc] |
|  | Δ (hardly soluble (<1 wt. %)) | Δ (hardly soluble (<1 wt. %)) |  |  | Cu tetra-t-butyl-phthalocyanine [CuPc] |
| ⊚ (soluble (>3 wt. %)) | Δ (hardly soluble (<1 wt. %)) |  | ◯ (slightly soluble (1 wt. % ˜ 3 wt. %)) | ⊚ (soluble (>3 wt. %)) | Zn-tetra-t-butyl-phthalocyanine [ZnPc] |

— patent US20030010621A1, “NOVEL SYNTHESIS OF PHTHALOCYANINES BY MICROWAVE IRRADIATION” (priority 2001, published 2003)
